Structures can show the parent of a compound that is named as a salt. Where two headings read alike, the source gives them in different places.
What was measured:
[1] = test system: total α-tubulin (α-Tub) levels in QBI293 cells; experiment: QBI293 cell assay: total α-tubulin ELISA; assay type: cell-based; conditions: for fold induction at 1 µM: read-out: α-Tub 1 μM, fold-change compared to vehicle (DMSO)-treated cells
[2] = test system: acetylated α-tubulin (AcTub) levels in QBI293 cells; experiment: QBI293 cell assay of MT stabilization: acetylated α-tubulin ELISA; assay type: cell-based; conditions: for AcTub (1 uM - normalized): 1 uM compound
[3] = QBI293 cells, 4 h incubation, 10 μM, read-out: α-Tub 10 μM, fold-change compared to vehicle (DMSO)-treated cells
[4] = 4 h, 10 uM compound, read-out: AcTub (10 uM)

CC(C)[C@H](Nc1c(-c2c(F)cc(OCCCN(C)C)cc2F)c(Cl)nc2ncnn12)C(F)(F)F [Compound 23, (S)-3-(4-(5-Chloro-7-((1,1,1-trifluoro-3-methylbutan-2-yl)amino)-[1,2,4]triazolo[1,5-a]pyrimidin-6-yl)-3,5-difluorophenoxy)-N,N-dimethylpropan-1-aminium Formate]
fold induction at 10 µM ([1]; 4 h, QBI293 cells, 10 uM compound, read-out: AlfaTub (10 uM)): 1.13 | fold induction at 1 µM ([1]; QBI293 cells, 4 h incubation, 1 μM): 0.87 ± 0.05 | AcTub (1 uM - normalized) ([2]; normalized): 1.26 | fold induction at 1 µM ([2]; 4 h incubation, 1 μM, read-out: AcTub 1 μM, fold-change compared to vehicle (DMSO)-treated cells): 12 ± 0.46 | fold induction at 10 µM ([2]; 4 h incubation, 10 μM, read-out: AcTub 10 μM, fold-change compared to vehicle (DMSO)-treated cells): 2.05 ± 0.1

C[C@@H](Nc1c(-c2c(F)cc(OCCCN(C)C)cc2F)c(Cl)nc2ncnn12)C(C)(C)C [Compound 24, (R)-3-(4-(5-Chloro-7-((3,3-dimethylbutan-2-yl)amino)-[1,2,4]triazolo[1,5-a]pyrimidin-6-yl)-3,5-difluorophenoxy)-N,N-dimethylpropan-1-aminium Formate]
fold induction at 10 µM [1, 3]: 0.97 ± 0.03 | AcTub 1 μM, fold-change compared to positive control compound 5 (100 nM) (in parentheses) ([2]; 4 h incubation, 1 μM): 1.02 fold-change

C[C@H](Nc1c(-c2c(F)cc(OCCCN(C)C)cc2F)c(Cl)nc2ncnn12)C1CC1 [Compound 31, (S)-3-(4-(5-Chloro-7-((1-cyclopropylethyl)amino)-[1,2,4]triazolo[1,5-a]pyrimidin-6-yl)-3,5-difluorophenoxy)-N,N-dimethylpropan-1-aminium Formate]
AcTub (10 uM - normalized) ([2]; 10 uM compound, normalized): 0.08 | fold induction at 10 µM [2, 4]: 0.56

CC(C)[C@@H](Nc1c(-c2c(F)cc(OCCCN(C)C)cc2F)c(Cl)nc2ncnn12)C(F)(F)F [Compound 22, (R)-3-(4-(5-Chloro-7-((1,1,1-trifluoro-3-methylbutan-2-yl)amino)-[1,2,4]triazolo[1,5-a]pyrimidin-6-yl)-3,5-difluorophenoxy)-N,N-dimethylpropan-1-aminium Formate]
fold induction at 10 µM [1, 3]: 1.13 ± 0.01 | AcTub (1 uM - normalized) ([2]; normalized): 1.04

C[C@@H](Nc1c(-c2c(F)cc(OCCCN(C)C)cc2F)c(Cl)nc2ncnn12)C1CC1 [Compound 32, (R)-3-(4-(5-Chloro-7-((1-cyclopropylethyl)amino)-[1,2,4]triazolo[1,5-a]pyrimidin-6-yl)-3,5-difluorophenoxy)-N,N-dimethylpropan-1-aminium Formate]
fold induction at 1 µM ([1]; QBI293, 4 h): 1.04 ± 0.01 | fold induction at 10 µM [2, 4]: 0.56

Source: article PMC9841533, “Microtubule-Stabilizing 1,2,4-Triazolo[1,5-a]pyrimidines as Candidate Therapeutics for Neurodegenerative Disease: Matched Molecular Pair Analyses and Computational Studies Reveal New Structure–Activity Insights” (Journal of Medicinal Chemistry, 2022)
